Source: PubChem BioAssay (Broad Institute)
MITF TRPM1 inh = inhibitors of MITF-driven TRPM1 promoter in melanoma cells; actives 0.83% (n = 330,000); AID 488899; inhibition, % at 12.5 µM; SK-MEL-5 TRPM1 promoter luciferase, 24 h;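 active = mean inhibition across replicates of 60% or more, whatever share of single replicates reaches that level; inconclusive = some that reach 60%, reason not given; inactive = mean inhibition across replicates below 60%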
miR122 inh = inhibitors of miR-122 in Huh7 cells | Huh7 miR-122 Renilla luciferase sensor, 48 h; neutral wells = 0, positive control = 100 | activation (reporter increase), % at 12.5 µM | actives 0.3% (n = 340,000);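 active = mean replicate activation score at least 90 and every replicate individually at or above 90; inconclusive = only one of the two criteria met; inactive = neither criterion met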;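 note: higher luciferase means less miR-122 activity so hits act as miR-122 inhibitors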
PGC1a acetyl inh = PGC1a acetylation modulation, inhibitor mode; U2OS PGC1a acetylation, AlphaScreen anti-acetyl-lysine; with virally co-expressed GCN5 acetyltransferase; inhibition, % at 15.6 µM; actives 0.17% (n = 350,000); AID 651687;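 active = every replicate shows inhibition of at least 40%; inconclusive = mean inhibition at least 40% but some replicate below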;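 note: 0% = neutral control wells and 100% = positive control wells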
UUG fidelity = modulators of yeast start codon fidelity, primary screen, whole organism, S. cerevisiae, single point, plate reader; S. cerevisiae UUG-firefly luciferase reporter, luminescence/redox ratio; activity score, % at 18.7 µM; 0.13% of 350,000 active; AID 602363, 2012;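 active = replicate mean at a twofold rise or more, about +100% in these data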;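 also: firefly luciferase made from a UUG start codon reports start codon fidelity; reporter light over untreated wells divided by growth signal over untreated wells; some hits fall short of that in this replicate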
MITF TRPM1 HTS = activators of MITF-driven TRPM1 promoter activity in SK-MEL-5 cells | SK-MEL-5 TRPM1-promoter luciferase, 24 h; % of positive control, neutral wells = 0 | activation, % at 12.5 µM | actives 0.75% (n = 300,000);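 active = mean activation of at least 80% with every replicate also reaching 80%; inconclusive = mean reaches 80% but some replicate falls short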;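 note: 0% = neutral control wells and 100% = parthenolide positive control wells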
Wnt bcat act = activates Wnt/beta-catenin signaling in a reporter cell assay. actives 1.2% (n = 300,000). activator, plate reader. activation, % at 9.35 µM. AID 743398; in the data active = activation above about 30%, passing the limit was not always enough; inconclusive = no clear call, values can overlap the other calls;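 note: 0% = neutral control wells and 100% = positive control wells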
An asterisk follows results filed as active; ? = inconclusive; . = no result; [ ] = another dose, or the depositor's remark. The list is not random: actives were taken first. Their share in the collection is about 2.1%.

SMILES | MITF TRPM1 inh | miR122 inh | PGC1a acetyl inh | UUG fidelity | MITF TRPM1 HTS | Wnt bcat act
COc1ccc(NC(=O)N(C)C[C@H]2OCCCC[C@H](C)Oc3ccc(NS(=O)(=O)c4ccc(C)cc4)cc3C(=O)N([C@H](C)CO)C[C@@H]2C)cc1 | . | -5.4[16.7 µM] | 7.1 | -4.6 | . | .
C[C@H](NC(=O)C[C@H]1CC[C@H]2[C@@H](COC[C@@H](O)CN2C(=O)Nc2cccc(F)c2)O1)c1ccccc1 | . | -0.3[16.7 µM] | 2.2 | 0.4 | . | .
O=c1c2ccccc2c2ccccc2c(=O)n1-c1ccccc1 | 3.8 | . | . | . | -5.9 | 15.3
O=c1c2ccccc2c(=O)n(-c2ccccc2)n1-c1ccccc1 | 15.8 | -9.0 | . | -8.9 | -15.1 | 36.8*
CC(=O)N(C)c1ccc(N=Nc2c(C)[nH]n(C(N)=S)c2=O)cc1 | -27.2 | . | . | . | 31.6 | 51.0*
CC(=O)N(C)c1ccc(N=NC2C(=O)N(C(N)=S)N=C2C)cc1 (stereo unspecified) | -25.5 | -2.9 | 4.9 | -23.1 | 29.0 | 51.9*
CC1=NN(C(N)=S)C(=O)C1N=Nc1ccc(S(N)(=O)=O)cc1 (stereo unspecified) | 4.7 | -3.3 | 22.2 | -20.9 | -4.6 | -0.7
Cc1ccc(S(=O)(=O)Nc2ccc3c(c2)CC(=O)N([C@@H](C)CO)C[C@H](C)[C@@H](CN(C)Cc2ccc4c(c2)OCO4)O3)cc1 | . | -7.8[16.7 µM] | -4.0 | 1.8 | . | .
O=C(NC1CCCC1)c1ccc(Cl)s1 | -7.2 | -3.3 | . | -7.3 | 6.1 | -2.4
O=C(NC1CCCCCC1)c1ccc([N+](=O)[O-])s1 | 70.8* | . | . | . | -70.6 | -5.4
O=C(Nc1cccc(C(=O)O)c1)/C(=C/c1ccc([N+](=O)[O-])cc1)NC(=O)c1ccccc1 | 10.8 | . | . | -8.6 | -11.1 | 0.1
O=C(Nc1cccc2ccccc12)/C(=C/c1ccc([N+](=O)[O-])cc1)NC(=O)c1ccccc1 | 15.1 | 238.0* | 2.3 | -13.6 | . | -3.4
COc1ccc(NC(=O)C2C(c3ccc4c(c3)OCO4)=Nc3ccccc3N2C(C)=O)cc1 (stereo unspecified) | . | . | . | . | . | 35.5*
COc1ccc(NC(=O)C2C(c3ccc4c(c3)OCO4)=Nc3ccccc3N2C(=O)c2cccc(C(F)(F)F)c2)cc1 (stereo unspecified) | . | . | . | . | . | 8.6
C[C@H](CO)N1C[C@H](C)[C@@H](CN(C)C)OCCCC[C@H](C)Oc2ccc(NS(C)(=O)=O)cc2C1=O | . | 2.3[16.7 µM] | 6.5 | . | . | .
Nc1ccc(O)c(-c2nc3ccccc3s2)c1 | 1.2 | -3.3 | 31.8 | -11.3 | 0.5 | 2.0
Oc1ccc(-c2nc3ccccc3s2)cc1 | -44.0 | 3.7 | -13.8 | . | 46.3 | 47.0*
c1csc(-c2nc3ccccc3s2)c1 | -76.3 | -2.1 | 7.9 | -20.5 | 78.8 | 12.5
Oc1ccc(-c2nc3ccccc3s2)c(O)c1 | -60.9 | . | . | . | 56.5 | 57.5*
c1ccc2sc(-c3ccncc3)nc2c1 | -64.4 | . | . | . | 69.5 | 42.5*
COc1ccc(-c2nc3ccccc3s2)cc1 | 26.4 | . | . | . | -22.4 | 4.7
Nc1ccccc1-c1nc2ccccc2s1 | -47.7 | -8.7 | -6.9 | -14.5 | 41.7 | 46.4*
CC(=O)NCc1ccc(-c2nc3ccccc3s2)cc1 | 1.3 | -1.4 | . | -28.5 | -1.3 | 14.1
COc1ccc(-c2nc3ccccc3s2)cc1NC(C)=O | -62.5 | 12.0 | -5.8 | -11.7 | 67.7 | 36.0*
c1cncc(-c2nc3ccccc3s2)c1 | -73.8 | -3.4 | 9.2 | -2.8 | 85.1* | ?
COc1ccc(Cl)cc1-c1nc(N)nc(N(C)C)n1 | -0.4 | . | . | . | -0.6 | -7.3
CN(C)c1nc(N)nc(-c2nc3ccccc3s2)n1 | -14.1 | . | -1.6 | . | 10.7 | 31.4*
COCC(=O)N(C)C[C@@H]1Oc2cc(C#CC3CCCC3)ccc2S(=O)(=O)N([C@@H](C)CO)C[C@@H]1C | . | -3.2[16.7 µM] | -10.0 | . | . | .
C[C@@H]1CN([C@@H](C)CO)C(=O)Cc2cc(NC(=O)CCN3CCOCC3)ccc2O[C@H]1CN(C)C(=O)NC1CCCCC1 | . | 4.0[16.7 µM] | -0.3 | 10.9 | . | .
CO[C@@H](CN(C)Cc1cc(F)ccc1F)[C@H](C)CN(C(=O)Nc1ccc(F)cc1)[C@H](C)CO | . | . | -11.0 | . | . | .

Single records (already shown):
CN(C)c1nc(N)nc(-c2nc3ccccc3s2)n1 is listed as MITF TRPM1 inh: -14.1; miR122 inh: .; PGC1a acetyl inh: -1.6; UUG fidelity: .; MITF TRPM1 HTS: 10.7; Wnt bcat act: 31.4*
CO[C@@H](CN(C)Cc1cc(F)ccc1F)[C@H](C)CN(C(=O)Nc1ccc(F)cc1)[C@H](C)CO is listed as MITF TRPM1 inh: .; miR122 inh: .; PGC1a acetyl inh: -11.0; UUG fidelity: .; MITF TRPM1 HTS: .; Wnt bcat act: .

(further entries)
SMILES | MITF TRPM1 inh | miR122 inh | PGC1a acetyl inh | UUG fidelity | MITF TRPM1 HTS | Wnt bcat act
Cc1ccc(NC(=S)NCc2ccccn2)cc1 | -6.6 | 8.1 | 4.3 | -33.9 | 12.2 | .
S=C(NCc1ccccn1)NN=Cc1ccccn1 | 69.9* | . | . | . | -68.5 | 21.7
CN1CCc2c(sc(NC(=O)c3ccc4ccccc4c3)c2C(N)=O)C1 | -111.3 | -5.3 | . | -7.6 | 120.8* | .
NC(=O)c1c(NC(=O)c2ccncc2)sc2c1CCCC2 | -21.2 | . | . | . | 24.3 | -0.6
Cc1onc(C(=O)Nc2sc3c(c2C#N)CCCC3)c1[N+](=O)[O-] | -6.5 | . | 9.9 | . | 0.6 | 34.9*
NC(=O)c1c(NC(=O)c2ccccc2)sc2c1CCC2 | -23.3 | 5.4 | -13.4 | -2.4 | 24.5 | 65.0*
CN1CCc2c(sc(NC(=O)Cc3ccccc3)c2C(N)=O)C1 | . | -3.3 | 4.7 | -19.2 | . | 2.5
N#Cc1c(NC(=O)c2ccco2)sc2c1CCC2 | -86.9 | 3.2 | . | -15.2 | 90.9* | 1.9
CC(C)N1CCc2c(sc(NC(=O)C3CCCCC3)c2C(N)=O)C1 | . | -12.9 | 43.7* | -3.1 | . | -5.3
CCOC(=O)C(NC(=O)c1ccc(F)cc1)(Nc1sc2c(c1C(N)=O)CCC2)C(F)(F)F (stereo unspecified) | 8.6 | . | . | . | -9.8 | 107.6*
O=C(Nc1sc2c(c1C(=O)O)CCCCC2)c1ccco1 | -37.0 | 208.3* | -5.2 | -8.5 | . | .
CC1=C(C(=O)OCc2ccc3c(c2)OCO3)C(c2ccccc2)NC(=O)N1 (stereo unspecified) | 28.2 | 36.5 | 55.5* | 2.6 | -27.9 | -13.7
C(=C\n1nnc2ccccc21)/c1ccccn1 | -40.8 | 10.9 | . | -5.8 | 41.7 | 33.9*
C[C@@H]1CN([C@@H](C)CO)C(=O)Cc2cc(NS(=O)(=O)c3cccs3)ccc2O[C@H]1CN(C)Cc1ccc(Oc2ccccc2)cc1 | . | -18.1[16.7 µM] | -17.1 | 0.6 | . | .
CCSc1nnc(NC(=O)c2csc(C)c2)s1 | -115.2 | -1.1 | -0.2 | 6.1 | 84.0* | 17.8

Rewritten field by field: entries from further up
NC(=O)c1c(NC(=O)c2ccncc2)sc2c1CCCC2
  MITF TRPM1 inh = -21.2
  miR122 inh = .
  PGC1a acetyl inh = .
  UUG fidelity = .
  MITF TRPM1 HTS = 24.3
  Wnt bcat act = -0.6

Cc1onc(C(=O)Nc2sc3c(c2C#N)CCCC3)c1[N+](=O)[O-]
  MITF TRPM1 inh = -6.5
  miR122 inh = .
  PGC1a acetyl inh = 9.9
  UUG fidelity = .
  MITF TRPM1 HTS = 0.6
  Wnt bcat act = 34.9*

(list continues)
SMILES | MITF TRPM1 inh | miR122 inh | PGC1a acetyl inh | UUG fidelity | MITF TRPM1 HTS | Wnt bcat act
C[C@H](CO)N1C[C@H](C)[C@@H](CN(C)Cc2ccc(Cl)c(Cl)c2)Oc2ccc(NC(=O)C3CC3)cc2C1=O | . | 2.7[16.7 µM] | -5.5 | 4.1 | . | .
Cc1cc(C2=NNC(=NC3CC3)SC2)c(C)n1Cc1ccco1 | 91.3* | . | . | . | -89.1 | .
C=CCn1c(C)cc(C2=NNC(=NC(C)(C)C)SC2)c1C | 79.2* | . | . | . | -77.7 | -1.4
C=CCn1c(C)cc(C2=NNC(=Nc3ccc(C)cc3)SC2)c1C | -28.5 | -2.7 | -5.1 | . | 27.4 | .
COc1ccc(-n2c(C)cc(C3=NNC(=NC4CC4)SC3)c2C)cc1 | -27.2 | . | -4.3 | . | 33.1 | 7.7
COCCn1c(C)cc(C2=NNC(=NC3CC3)SC2)c1C | 102.1* | . | . | . | -101.2 | -7.9
Cc1cc(C2=NNC(=NC3CC3)SC2)c(C)n1-c1ccccc1 | 100.4* | . | . | . | -99.5 | -32.2
CC1C=NC(S(=O)(=O)N2CC[C@@H]3[C@H](CO)N(C)c4ccc(-c5ccccc5F)cc4[C@@H]32)=N1 (stereo partly specified) | . | 0.9[16.7 µM] | 3.1 | -2.0 | . | .
